Measurements taken from ChEMBL document CHEMBL1131511, “Potent HIV protease inhibitors incorporating high-affinity P2-ligands and (R)-(hydroxyethylamino)sulfonamide isostere” (Bioorg Med Chem Lett, 1998).

Molecular target: Human immunodeficiency virus type 1 protease (Human immunodeficiency virus 1, UniProt Q72874)
Experiment: Inhibitory activity against HIV-1 protease

## CC(C)(C)NC(=O)[C@@H]1C[C@@H]2CCCC[C@@H]2CN1C[C@@H](O)[C@H](Cc1ccccc1)NC(=O)O[C@H]1CCOC1
  Ki: 87 nM
